One compound from ChEMBL document CHEMBL1148439, “A phenylnorstatine inhibitor binding to HIV-1 protease: geometry, protonation, and subsite-pocket interactions analyzed at atomic resolution” (J Med Chem, 2004) can be followed below.

Structures are written as SMILES. pKi: −log10 of the molar value.

This assay deals with Human immunodeficiency virus type 1 protease (Human immunodeficiency virus 1, UniProt Q72874). The assay is described as follows: Tested for inhibitor binding of wild-type HIV PR. Further details: species or system human immunodeficiency virus type1.

The term pKi denotes −log10 of the Ki, conventionally taken in molar units.

In the case of `NC(=O)[C@H](CCC(=O)O)NC(=O)[C@H](CCC(=O)O)NC(=O)[C@H](Cc1ccccc1)NC(=O)[C@H](O)[C@H](Cc1ccccc1)NC(=O)OCc1ccccc1`, the pKi is 9.74.
